These are literature values, as cited in patent publication US20160186266A1, “MOLECULAR PROFILING FOR PERSONALIZED MEDICINE” (CARIS LIFE SCIENCES, INC., priority 2009, published 2016).

In this data set the test system is HER2 positive breast cancers. Conditions: unselected HER2+ patients.

For the substance “trastuzumab: monoclonal antibody that interferes with the HER2/neu receptor”, the “percentage of HER2 positive breast cancers that respond to treatment” value was “about 30%”.
